{"sequences": {"note": "Amino acid sequences for entries named in this document (tags omitted). Residues count along the entry.", "UniProt P48357, 22-1165": "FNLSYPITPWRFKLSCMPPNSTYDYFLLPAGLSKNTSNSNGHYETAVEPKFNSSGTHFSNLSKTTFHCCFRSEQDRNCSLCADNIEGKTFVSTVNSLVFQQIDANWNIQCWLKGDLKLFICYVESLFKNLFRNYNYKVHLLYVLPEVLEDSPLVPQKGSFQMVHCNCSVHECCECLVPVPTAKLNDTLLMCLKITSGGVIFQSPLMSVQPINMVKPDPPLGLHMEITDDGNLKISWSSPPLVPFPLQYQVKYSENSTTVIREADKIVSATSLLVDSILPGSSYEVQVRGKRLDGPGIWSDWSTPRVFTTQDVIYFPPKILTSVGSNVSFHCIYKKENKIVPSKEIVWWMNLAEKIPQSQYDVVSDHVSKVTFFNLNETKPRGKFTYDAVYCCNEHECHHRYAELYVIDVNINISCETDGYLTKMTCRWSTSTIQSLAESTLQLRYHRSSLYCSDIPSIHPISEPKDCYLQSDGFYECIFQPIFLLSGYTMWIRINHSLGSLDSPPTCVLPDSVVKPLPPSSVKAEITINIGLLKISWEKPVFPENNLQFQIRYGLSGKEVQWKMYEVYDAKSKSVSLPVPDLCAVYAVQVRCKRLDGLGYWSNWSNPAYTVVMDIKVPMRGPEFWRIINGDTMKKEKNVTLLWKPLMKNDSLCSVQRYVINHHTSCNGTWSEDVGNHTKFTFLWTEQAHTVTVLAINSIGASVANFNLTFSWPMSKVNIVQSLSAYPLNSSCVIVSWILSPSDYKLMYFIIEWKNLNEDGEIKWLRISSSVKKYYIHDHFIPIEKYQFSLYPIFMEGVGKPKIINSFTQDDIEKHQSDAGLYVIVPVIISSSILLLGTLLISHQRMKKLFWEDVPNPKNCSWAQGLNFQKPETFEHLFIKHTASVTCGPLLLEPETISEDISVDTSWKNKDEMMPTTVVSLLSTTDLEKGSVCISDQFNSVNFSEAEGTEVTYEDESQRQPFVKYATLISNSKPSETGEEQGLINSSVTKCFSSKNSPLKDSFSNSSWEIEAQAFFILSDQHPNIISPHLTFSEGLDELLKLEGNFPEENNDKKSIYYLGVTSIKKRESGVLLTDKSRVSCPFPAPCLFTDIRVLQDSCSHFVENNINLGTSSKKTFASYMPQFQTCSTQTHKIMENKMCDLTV"}, "source": "patent US20250346663A1", "target": "human leptin receptor on 293T reporter cells (human) (UniProt P48357)", "experiment": "cell-based or functional assay", "data": [{"substance": "mbp_G4S_hlep(22-167)V94M (MBP-(G4S)-human leptin V94M-6His) (ligand)", "values": [{"measurement": "bioactivity of the purified human leptin from Spirulina", "result": 0.5, "unit": "nM"}]}]}
